From PubChem BioAssay AID602215 (Sanford-Burnham Center for Chemical Genomics, 2012)
Activity calls are given as the source filed them.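 How the source made its calls: active means IC50 of 20 µM or lower; inactive means the rest.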

System: HL-1 cardiomyocytes, H2O2 injury, ATP luminescence, 2 h
Experiment: protection of HL-1 cardiomyocytes from peroxide injury, dose response, cell-based, ATP luminescence (AID 602215);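 further: potency is for protection so actives raise ATP signal against peroxide damage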

## NC(=O)c1ccsc1NC(=O)c1ccc([N+](=O)[O-])o1
  IC50: inactive: > 79 µM
